Molecular target: T1, Dimer of Gag-Pol polyprotein [501-599] (Human immunodeficiency virus 1, UniProt P03367)
T1 construct: 501-599
Assay: Protease Inhibition Assay
Settings: pH 4.7; 30 °C

Row | Structure (SMILES) | Ki [µM]
1 | CC(C)(C)OC(=O)NCCCC[C@H](NC(=O)OCC1c2ccccc2-c2ccccc21)C(=O)O [(2S)-6-{[(tert-butoxy)carbonyl]amino}-2-{[(9H-fluoren-9-ylmethoxy)carbonyl]amino}hexanoic acid] | 28
2 | Cc1ccc(S(=O)(=O)N(CC(C)C)[C@H](CCCCNC(=O)OCC2c3ccccc3-c3ccccc32)C(=O)O)cc1 [(2R)-6-{[(9H-fluoren-9-ylmethoxy)carbonyl]amino}-2-[(4-methylbenzene)(2-methylpropyl)sulfonamido]hexanoic acid] | 0.33
